We go through one compound from patent US20040116436A1, “Treatment of dementia and parkinson's disease” (priority 2002, published 2004).

The assay deals with alpha 2 receptor. The note with it: applied IP.

As to `Clc1ccc2nsnc2c1NC1=NCCN1` [Tizanidine, tizanidine], the “concentration at which therapeutic effects begin” value is “about 100 micrograms/kg”.
